Data reported in patent publication US7192924B2, “Corticotropin releasing factor 2 receptor agonists” (priority 2002, dated 2007).

Legend:
[1] = biological target: T1, CRF1R (Homo sapiens, UniProt P34998); experiment: CRF1R agonist activity (EC50, Emax), called comparative CRF binding; type: cell-based
T1 sequence (P34998 24-415): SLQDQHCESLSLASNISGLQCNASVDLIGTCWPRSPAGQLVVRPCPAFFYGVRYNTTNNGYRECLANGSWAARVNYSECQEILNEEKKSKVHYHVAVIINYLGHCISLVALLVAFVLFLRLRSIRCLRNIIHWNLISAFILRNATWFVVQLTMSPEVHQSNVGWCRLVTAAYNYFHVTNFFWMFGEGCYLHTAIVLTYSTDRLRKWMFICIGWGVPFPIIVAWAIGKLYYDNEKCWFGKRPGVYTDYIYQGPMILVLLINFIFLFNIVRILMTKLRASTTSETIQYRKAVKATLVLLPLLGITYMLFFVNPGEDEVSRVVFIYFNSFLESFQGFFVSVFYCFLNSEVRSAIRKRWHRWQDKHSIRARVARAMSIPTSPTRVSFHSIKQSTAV
In short: (§1)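 cAMP read-out: CRE-linked reporter (e.g. luciferase, CAT, GFP) or lysate cAMP in CRF1R- or CRF2R-expressing cells after peptide exposure; vehicle control comparison. Signal from any non-target CRFR subtracted.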

[2] = biological target: T2, CRF2R (Homo sapiens, UniProt Q13324); experiment: CRF2R agonist activity (EC50, Emax), called comparative CRF binding; type: cell-based
T2 sequence (Q13324 1-411): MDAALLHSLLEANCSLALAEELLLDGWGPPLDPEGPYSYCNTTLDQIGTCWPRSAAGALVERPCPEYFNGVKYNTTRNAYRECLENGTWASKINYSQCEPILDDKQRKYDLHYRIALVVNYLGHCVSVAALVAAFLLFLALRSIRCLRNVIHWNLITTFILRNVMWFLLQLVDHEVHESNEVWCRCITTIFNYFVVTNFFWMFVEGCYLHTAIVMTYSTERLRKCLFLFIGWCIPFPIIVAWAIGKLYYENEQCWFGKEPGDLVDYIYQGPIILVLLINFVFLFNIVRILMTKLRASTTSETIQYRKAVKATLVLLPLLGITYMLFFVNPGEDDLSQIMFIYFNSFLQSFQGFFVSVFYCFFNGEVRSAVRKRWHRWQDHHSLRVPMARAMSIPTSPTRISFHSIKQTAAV
In short: as §1

CC[C@H](C)[C@H](NC(=O)[C@H](CCCNC(=N)N)NC(=O)[C@H](C)NC(=O)[C@H](CC(N)=O)NC(=O)[C@@H](NC(=O)[C@@H](NC(=O)[C@H](C)NC(=O)[C@H](CCC(N)=O)NC(=O)[C@H](CCC(N)=O)NC(=O)[C@H](CCCCN)NC(=O)[C@H](CCC(=O)O)NC(=O)[C@H](CCCCN)NC(=O)[C@H](CCC(=O)O)NC(=O)[C@H](CCC(N)=O)NC(=O)[C@H](CCCCN)NC(=O)[C@H](CCC(=O)O)NC(=O)[C@@H](NC(=O)[C@H](CCC(=O)O)NC(=O)[C@@H](NC(=O)[C@H](CC(C)C)NC(=O)[C@@H](NC(=O)[C@H](CCCNC(=N)N)NC(=O)[C@H](CC(C)C)NC(=O)[C@H](CC(C)C)NC(=O)[C@H](CCC(N)=O)NC(=O)[C@H](Cc1ccccc1)NC(=O)[C@@H]1CCCN1C(=O)[C@@H](NC(=O)[C@H](CC(=O)O)NC(=O)[C@@H](NC(=O)[C@H](CO)NC(=O)[C@@H](NC(=O)[C@@H]1CCCN1C(=O)[C@@H]1CCCN1C(=O)CNC(=O)[C@@H]1CCC(=O)N1)[C@@H](C)CC)[C@@H](C)CC)C(C)C)[C@@H](C)CC)[C@@H](C)CC)[C@@H](C)CC)[C@@H](C)O)[C@@H](C)O)C(=O)N[C@@H](CC(C)C)C(=O)N[C@@H](C)C(=O)N[C@@H](CCCNC(=N)N)C(=O)N[C@H](C(N)=O)C(C)C [compound 171]
EC50 [1]: 0.206 µM | EC50 [2]: 0.0176 µM

CC[C@H](C)[C@H](NC(=O)[C@H](CCCNC(=N)N)NC(=O)[C@H](C)NC(=O)[C@H](CC(N)=O)NC(=O)[C@@H](NC(=O)[C@@H](NC(=O)[C@H](C)NC(=O)[C@H](CCC(N)=O)NC(=O)[C@H](CCC(=O)O)NC(=O)[C@H](CCCNC(=N)N)NC(=O)[C@H](C)NC(=O)[C@H](C)NC(=O)[C@H](CCCNC(=N)N)NC(=O)[C@H](C)NC(=O)[C@H](CCCNC(=N)N)NC(=O)[C@H](C)NC(=O)[C@H](CCC(N)=O)NC(=O)[C@H](CCC(=O)O)NC(=O)[C@@H](NC(=O)[C@H](CCSC)NC(=O)[C@H](CCCCN)NC(=O)[C@H](CCCNC(=N)N)NC(=O)[C@H](CC(C)C)NC(=O)[C@H](CC(C)C)NC(=O)[C@H](CCC(=O)O)NC(=O)[C@H](CC(C)C)NC(=O)[C@H](CO)NC(=O)[C@H](CC(C)C)NC(=O)[C@H](CC(=O)O)NC(=O)[C@@H](NC(=O)[C@H](CO)NC(=O)[C@@H](NC(=O)[C@@H]1CCCN1C(=O)[C@@H]1CCCN1C(=O)CNC(=O)[C@@H]1CCC(=O)N1)[C@@H](C)CC)[C@@H](C)CC)[C@@H](C)CC)[C@@H](C)O)[C@@H](C)O)C(=O)N[C@@H](CC(C)C)C(=O)N[C@@H](C)C(=O)N[C@@H](CCCNC(=N)N)C(=O)N[C@H](C(N)=O)C(C)C [compound 156]
EC50 [1]: > 0.1 µM | EC50 [2]: 0.00929 µM

CC[C@H](C)[C@H](NC(=O)[C@@H](NC(=O)[C@H](C)NC(=O)[C@H](CC(C)C)NC(=O)[C@H](CC(C)C)NC(=O)[C@H](CC(C)C)NC(=O)[C@H](C)NC(=O)[C@H](CC(N)=O)NC(=O)[C@H](CC(N)=O)NC(=O)[C@H](C)NC(=O)[C@H](C)NC(=O)[C@H](CCC(N)=O)NC(=O)[C@H](CCC(N)=O)NC(=O)[C@H](CCCCN)NC(=O)[C@H](CCC(=O)O)NC(=O)[C@H](CCCCN)NC(=O)[C@H](CCC(=O)O)NC(=O)[C@H](CCC(N)=O)NC(=O)[C@H](CCCCN)NC(=O)[C@H](CCC(=O)O)NC(=O)[C@@H](NC(=O)[C@H](CCC(=O)O)NC(=O)[C@@H](NC(=O)[C@@H](NC(=O)[C@H](CCCCN)NC(=O)[C@H](CCCNC(=N)N)NC(=O)[C@H](CC(C)C)NC(=O)[C@H](CC(C)C)NC(=O)[C@@H](NC(=O)[C@H](CCC(N)=O)NC(=O)[C@@H]1CCCN1C(=O)[C@H](CC(C)C)NC(=O)[C@H](CC(=O)O)NC(=O)[C@@H](NC(=O)[C@H](CO)NC(=O)[C@@H](NC(=O)[C@@H]1CCCN1C(=O)[C@@H]1CCCN1C(=O)CNC(=O)[C@@H]1CCC(=O)N1)[C@@H](C)CC)[C@@H](C)CC)[C@@H](C)CC)C(C)C)[C@@H](C)CC)[C@@H](C)CC)[C@@H](C)O)C(N)=O [compound 299]
EC50 [1]: ≥ 1 µM | EC50 [2]: 0.0464 µM

CC[C@H](C)[C@H](NC(=O)[C@@H](NC(=O)[C@H](C)NC(=O)[C@H](CC(C)C)NC(=O)[C@H](CC(C)C)NC(=O)[C@H](CC(C)C)NC(=O)[C@H](C)NC(=O)[C@H](CC(N)=O)NC(=O)[C@H](CC(N)=O)NC(=O)[C@H](C)NC(=O)[C@H](C)NC(=O)[C@H](CCC(N)=O)NC(=O)[C@H](CCC(N)=O)NC(=O)[C@H](CCCCN)NC(=O)[C@H](CCC(=O)O)NC(=O)[C@H](CCCCN)NC(=O)[C@H](CCC(=O)O)NC(=O)[C@H](CCC(N)=O)NC(=O)[C@H](CCCCN)NC(=O)[C@H](CCC(=O)O)NC(=O)[C@@H](NC(=O)[C@H](CCC(=O)O)NC(=O)[C@@H](NC(=O)[C@H](CCSC)NC(=O)[C@H](CCCCN)NC(=O)[C@H](CCCNC(=N)N)NC(=O)[C@H](CC(C)C)NC(=O)[C@H](CC(C)C)NC(=O)[C@H](Cc1ccc(O)cc1)NC(=O)[C@@H](NC(=O)[C@@H]1CCCN1C(=O)[C@H](CC(C)C)NC(=O)[C@H](CC(=O)O)NC(=O)[C@@H](NC(=O)[C@H](CO)NC(=O)[C@@H](NC(=O)[C@@H]1CCCN1C(=O)[C@@H]1CCCN1C(=O)CNC(=O)[C@@H]1CCC(=O)N1)[C@@H](C)CC)[C@@H](C)CC)[C@@H](C)CC)[C@@H](C)CC)[C@@H](C)CC)[C@@H](C)O)C(N)=O [compound 237]
EC50 [1]: ≥ 1 µM | EC50 [2]: 0.0222 µM

CC[C@H](C)[C@H](NC(=O)[C@H](CCC(=O)O)NC(=O)[C@@H](NC(=O)[C@H](CCSC)NC(=O)[C@H](CCCCN)NC(=O)[C@H](CCCNC(=N)N)NC(=O)[C@H](CC(C)C)NC(=O)[C@H](CC(C)C)NC(=O)[C@H](CCC(N)=O)NC(=O)[C@H](Cc1ccc(O)cc1)NC(=O)[C@@H]1CCCN1C(=O)[C@H](CC(C)C)NC(=O)[C@H](CC(=O)O)NC(=O)[C@@H](NC(=O)[C@H](CO)NC(=O)[C@@H](NC(=O)[C@@H]1CCCN1C(=O)[C@@H]1CCCN1C(=O)CNC(=O)[C@@H]1CCC(=O)N1)[C@@H](C)CC)[C@@H](C)CC)[C@@H](C)CC)C(=O)N[C@@H](CCC(=O)O)C(=O)N[C@@H](CCCCN)C(=O)N[C@@H](CCC(N)=O)C(=O)N[C@@H](CCC(=O)O)C(=O)N[C@@H](CCCCN)C(=O)N[C@@H](CCC(=O)O)C(=O)N[C@@H](CCCCN)C(=O)N[C@@H](CCC(N)=O)C(=O)N[C@@H](CCC(N)=O)C(=O)N[C@@H](C)C(=O)N[C@@H](C)C(=O)N[C@@H](CC(N)=O)C(=O)N[C@@H](CC(N)=O)C(=O)N[C@@H](C)C(=O)N[C@@H](CCCNC(=N)N)C(=O)N[C@@H](CC(C)C)C(=O)N[C@@H](CC(C)C)C(=O)N[C@@H](C)C(=O)N[C@@H](CCCNC(=N)N)C(N)=O [compound 287]
EC50 ([1]; read-out: CRF1R EC50): ≥ 1 µM | EC50 ([2]; read-out: CRF2R EC50): 0.0113 µM

CC[C@H](C)[C@H](NC(=O)[C@@H](NC(=O)[C@H](CC(=O)O)NC(=O)[C@H](CC(C)C)NC(=O)[C@H](CC(C)C)NC(=O)[C@H](CC(C)C)NC(=O)[C@H](CCCNC(=N)N)NC(=O)[C@H](CC(N)=O)NC(=O)[C@H](CC(N)=O)NC(=O)[C@H](C)NC(=O)[C@H](C)NC(=O)[C@H](CCC(N)=O)NC(=O)[C@H](CCC(N)=O)NC(=O)[C@H](CCCCN)NC(=O)[C@H](CCC(=O)O)NC(=O)[C@H](CCCCN)NC(=O)[C@H](CCC(=O)O)NC(=O)[C@H](CCC(N)=O)NC(=O)[C@H](CCCCN)NC(=O)[C@H](CCC(=O)O)NC(=O)[C@@H](NC(=O)[C@H](CCC(=O)O)NC(=O)[C@@H](NC(=O)[C@H](CCSC)NC(=O)[C@H](CCCCN)NC(=O)[C@H](CCCNC(=N)N)NC(=O)[C@H](CC(C)C)NC(=O)[C@H](CC(C)C)NC(=O)[C@H](C)NC(=O)[C@H](C)NC(=O)[C@@H]1CCCN1C(=O)[C@H](CC(C)C)NC(=O)[C@H](CC(=O)O)NC(=O)[C@@H](NC(=O)[C@H](CO)NC(=O)[C@@H](NC(=O)[C@@H]1CCCN1C(=O)[C@@H]1CCCN1C(=O)CNC(=O)[C@@H]1CCC(=O)N1)[C@@H](C)CC)[C@@H](C)CC)[C@@H](C)CC)[C@@H](C)CC)[C@@H](C)O)C(N)=O [compound 303]
EC50 [1]: 0.582 µM | EC50 [2]: 0.0273 µM

CC[C@H](C)[C@H](NC(=O)[C@@H](NC(=O)[C@H](CC(=O)O)NC(=O)[C@H](CC(C)C)NC(=O)[C@H](CC(C)C)NC(=O)[C@H](CCCNC(=N)N)NC(=O)[C@H](C)NC(=O)[C@H](CC(N)=O)NC(=O)[C@H](CC(N)=O)NC(=O)[C@H](C)NC(=O)[C@H](C)NC(=O)[C@H](CCC(N)=O)NC(=O)[C@H](CCC(N)=O)NC(=O)[C@H](CCCCN)NC(=O)[C@H](CCC(=O)O)NC(=O)[C@H](CCCCN)NC(=O)[C@H](CCC(=O)O)NC(=O)[C@H](CCC(N)=O)NC(=O)[C@H](CCCCN)NC(=O)[C@H](CCC(=O)O)NC(=O)[C@@H](NC(=O)[C@H](CCC(=O)O)NC(=O)[C@@H](NC(=O)[C@@H](NC(=O)[C@H](CCCCN)NC(=O)[C@H](CCCNC(=N)N)NC(=O)[C@H](CC(C)C)NC(=O)[C@H](CC(C)C)NC(=O)[C@H](CCC(N)=O)NC(=O)[C@H](Cc1ccccc1)NC(=O)[C@@H]1CCCN1C(=O)[C@@H](NC(=O)[C@H](CC(=O)O)NC(=O)[C@@H](NC(=O)[C@H](CO)NC(=O)[C@@H](NC(=O)[C@@H]1CCCN1C(=O)[C@@H]1CCCN1C(=O)CNC(=O)[C@@H]1CCC(=O)N1)[C@@H](C)CC)[C@@H](C)CC)C(C)C)C(C)C)[C@@H](C)CC)[C@@H](C)CC)[C@@H](C)O)C(N)=O [compound 382]
EC50 ([1]; read-out: CRF1R EC50): ≥ 1 µM | EC50 ([2]; read-out: CRF2R EC50): 0.0395 µM

Read-outs that look alike come from different tables or passages of the source.
